Literature values, collected in publication PMC12692388.

Molecular target: RACK1 (Homo sapiens) (UniProt P63244)

## RACK1 (from UniProt P63244)
  Kd: 50 µM
